Reference: US6716986B2, “Sulfuric acid mono-[3-({1-[2-(4-fluoro-phenyl)-ethyl]-piperidin-4-YL}-hydroxy-methyl)-2-methoxy-phenyl]ester” (Aventis Pharmaceuticals Inc., priority 1999, dated 2004)

Chains of the proteins cited; added tags and fusions are not shown. Residues count along the entry.
UniProt P28335, 33-458: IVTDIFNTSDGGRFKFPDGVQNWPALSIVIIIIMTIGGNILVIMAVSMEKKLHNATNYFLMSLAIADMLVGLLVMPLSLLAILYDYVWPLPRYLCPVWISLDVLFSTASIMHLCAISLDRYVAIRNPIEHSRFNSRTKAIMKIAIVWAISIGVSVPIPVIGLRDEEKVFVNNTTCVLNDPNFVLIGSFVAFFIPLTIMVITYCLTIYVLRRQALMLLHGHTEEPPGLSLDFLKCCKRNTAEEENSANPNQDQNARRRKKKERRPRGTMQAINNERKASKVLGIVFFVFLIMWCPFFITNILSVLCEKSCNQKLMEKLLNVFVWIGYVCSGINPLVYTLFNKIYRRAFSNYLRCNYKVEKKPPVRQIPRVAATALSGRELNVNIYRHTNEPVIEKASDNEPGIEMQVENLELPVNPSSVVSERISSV

Biological target: T1, human 5-HT2c (Homo sapiens, UniProt P28335)
T1 construct: expressed in transfected cells
Test: In vitro inhibition of [3H]-ligand binding to human 5-HT2C receptor
Details: CHO, saturation (Scatchard) and kinetic analysis
Method: Cells stably expressing the human homologs of the receptors (dopamine D2L, serotonin 5HT2A and 5HT2C, α1A adrenergic; cloned and expressed at Hoechst Marion Roussel; Grandy et al., 1989; Monsma et al., 1993; Schwinn et al., 1995) were grown; cell membranes were prepared, and kept frozen until used (Kongsamut et al., 1996). The relevance of these binding sites has been extensively discussed in the literature (see for example: Carlsson & Carlsson, 1990; Creese et al., 1976; Gorman & Vargas, 1995; Meltzer et al., 1989). All binding parameters were optimized at Hoechst Marion Roussel; ligand Kds were determined using both saturation analysis (Scatchard) as well as kinetic analysis (association and dissociation rates). Each batch of membrane was validated by checking the ligand Kd, and rank order of potency of selected standard compounds. […]
Membranes were rapidly thawed and diluted to an appropriate concentration (between 20-150 μg protein/assay point depending on receptor expression level) in Tris buffer and homogenized. […] Microscint scintillation cocktail (40 μl) were added and the filter plates were counted in a Packard Top Count scintillation counter. Data were analyzed to determine Ki's for compounds of interest (Prusoff & Cheng, […]).Table: Receptor Binding Parameters.

Compound: CN1C[C@@H](NS(=O)(=O)N(C)C)C[C@@H]2c3cccc4c3c(cn4C)C[C@H]21 [[^3H]mesulergine, reference compound]
- Kd: 1.9 nM
